Only a part is listed here, and it is no random draw. Activity calls are given as the source filed them.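 How the source made its calls: active means activation of at least 8% versus controls, or a plate z-score of at least 8; inactive means the rest.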
Test: compounds raising alpha-dystroglycan glycosylation – uHTS, Pro5-aDG cells, AlphaScreen, primary screen (AID 624168);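 further: Pro5 are CHO cells carrying HIG-tagged alpha-DG that lacks glycosylation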
Settings: alpha-DG glycosylation AlphaScreen (IIH6), at 10 µM, active compounds read high, 0% Pro5, 100% B10-LARGE cell signal

Row | SMILES | activation
1 | Cc1nc2ccc3ccccc3c2s1.O=[N+]([O-])c1cc([N+](=O)[O-])c(O)c([N+](=O)[O-])c1 | inactive: -0.1%
2 | O=[N+]([O-])c1cc([N+](=O)[O-])c(-c2cnn(-c3ccccc3)c2)c([N+](=O)[O-])c1 | inactive: 1%
3 | CN(Cc1cccnc1)C(=O)COc1ccc(Cl)c(Cl)c1.O=[N+]([O-])c1cc([N+](=O)[O-])c(O)c([N+](=O)[O-])c1 | inactive: 0%
4 | O=[N+]([O-])c1cc([N+](=O)[O-])c(-n2nnc3ccccc32)c([N+](=O)[O-])c1 | inactive: -0.2%
5 | CCCOc1ccc(NP(C)(=O)Oc2ccc(Cl)cc2)cc1 (centres undefined) | inactive: 0.4%
6 | CP(=O)(Nc1ccc(SC(F)(F)F)cc1)Oc1ccccc1 (centres undefined) | inactive: 0.2%
7 | COc1ccc(-c2ccccn2)cc1.O=[N+]([O-])c1cc([N+](=O)[O-])c(O)c([N+](=O)[O-])c1 | inactive: -0.3%
8 | COc1ccccc1OP(C)(=O)Nc1c(C)cccc1C (centres undefined) | inactive: 0.1%
9 | CN1CCCCC1COC(=O)C1(O)c2ccccc2CCc2ccccc21 (centres undefined) | inactive: 0.1%
10 | CCOC(=O)C(CC)C1=NC(C)(C)Cc2ccccc21.O=[N+]([O-])c1cc([N+](=O)[O-])c(O)c([N+](=O)[O-])c1 (centres undefined) | inactive: 0%
11 | CC1=C2N=C(C=C3N=C(C(C)=C4[N-][C@@](C)([C@@H]5N=C1[C@](C)(CCC(=O)NC[C@@H](C)OP(=O)([O-])O[C@H]1[C@@H](O)[C@@H](n6cnc7cc(C)c(C)cc76)O[C@@H]1CO)[C@H]5CC(N)=O)[C@@](C)(CC(N)=O)[C@@H]4CCC(N)=O)[C@@](C)(CC(N)=O)[C@@H]3CCC(N)=O)C(C)(C)[C@@H]2CCC(N)=O.[C-]#N.[Co+3] | inactive: 0.1%
12 | O=[N+]([O-])c1cc([N+](=O)[O-])c(Nc2nnnn2CCO)c([N+](=O)[O-])c1 | inactive: 0.1%
13 | CC1=NCCc2c1[nH]c1ccccc21.O=[N+]([O-])c1cc([N+](=O)[O-])c(O)c([N+](=O)[O-])c1 | inactive: 0%
14 | O=C(O)c1cccc(Nc2c([N+](=O)[O-])cc([N+](=O)[O-])cc2[N+](=O)[O-])c1 | inactive: -0.1%
15 | Cc1cc(C)cc(OP(C)(=O)Nc2ccccn2)c1 (centres undefined) | inactive: 0.5%
16 | CP(=O)(Nc1cccc(Br)c1)Oc1ccccc1 (centres undefined) | inactive: 1%
17 | Cc1ccc(C)c(NP(C)(=O)Oc2ccccc2)c1 (centres undefined) | inactive: 0.3%
18 | Cc1cc(C)cc(OP(C)(=O)Nc2ccc(C)cc2C)c1 (centres undefined) | inactive: 0.2%
19 | CCOC(=O)c1ccc(NP(C)(=O)Oc2cc(C)cc(C)c2)cc1 (centres undefined) | inactive: 0.3%

From PubChem BioAssay AID624168 (Sanford-Burnham Center for Chemical Genomics, 2012)
